Each block holds one molecule with its values, some of them ahead of it.
Experiments:
Assay type in all cases: cell-based
Homo sapiens = species: Homo sapiens; experiment: Agonist activity at full-length human PPARgamma/RXR expressed in HEK293T cells at 25 uM after 14 to 16 hrs in presence of 1 uM rosiglitazone by dual-glo luciferase reporter gene assay relative to rosiglitazone
[1] = biological target: T1, Retinoic acid receptor RXR-alpha (Homo sapiens) (UniProt P19793); experiment: Agonist activity at Gal4-LBD fused RXRalpha (unknown origin) expressed in HEK293T cells assessed as fold activation at 5 uM after 14 to 16 hrs by dual-Glo luciferase assay relative to untreated control
T1 sequence (whole entry): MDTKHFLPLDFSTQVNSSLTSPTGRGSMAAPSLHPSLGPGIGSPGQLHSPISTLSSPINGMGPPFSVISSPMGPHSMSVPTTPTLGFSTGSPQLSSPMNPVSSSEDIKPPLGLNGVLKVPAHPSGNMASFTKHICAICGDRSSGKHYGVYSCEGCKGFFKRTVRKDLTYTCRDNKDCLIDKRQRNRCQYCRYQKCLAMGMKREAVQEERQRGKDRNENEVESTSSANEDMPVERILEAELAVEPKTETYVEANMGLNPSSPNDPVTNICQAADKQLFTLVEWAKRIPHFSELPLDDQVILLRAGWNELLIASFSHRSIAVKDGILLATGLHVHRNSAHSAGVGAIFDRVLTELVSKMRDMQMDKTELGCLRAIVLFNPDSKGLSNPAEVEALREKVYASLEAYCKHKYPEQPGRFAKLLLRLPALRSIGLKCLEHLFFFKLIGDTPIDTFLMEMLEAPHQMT

[2] = biological target: T2, Retinoic acid receptor RXR-beta (Homo sapiens) (UniProt P28702); experiment: Agonist activity at Gal4-LBD fused RXRbeta (unknown origin) expressed in HEK293T cells assessed as fold activation at 5 uM after 14 to 16 hrs by dual-Glo luciferase assay relative to untreated control
T2 sequence (whole entry): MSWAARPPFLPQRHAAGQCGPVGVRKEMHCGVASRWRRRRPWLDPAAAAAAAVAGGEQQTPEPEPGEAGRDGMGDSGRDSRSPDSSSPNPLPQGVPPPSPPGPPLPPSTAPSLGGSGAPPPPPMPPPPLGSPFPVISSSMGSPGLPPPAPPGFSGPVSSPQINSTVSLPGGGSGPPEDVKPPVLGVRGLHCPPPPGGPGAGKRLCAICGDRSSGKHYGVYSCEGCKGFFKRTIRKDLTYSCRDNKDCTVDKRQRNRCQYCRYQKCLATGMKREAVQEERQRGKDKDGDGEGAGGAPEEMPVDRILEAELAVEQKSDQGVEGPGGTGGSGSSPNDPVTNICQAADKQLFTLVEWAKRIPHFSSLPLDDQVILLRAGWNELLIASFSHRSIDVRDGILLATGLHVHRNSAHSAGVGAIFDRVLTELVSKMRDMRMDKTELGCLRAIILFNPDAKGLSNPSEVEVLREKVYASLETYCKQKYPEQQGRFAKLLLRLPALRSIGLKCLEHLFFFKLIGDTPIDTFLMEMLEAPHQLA

[3] = biological target: T3, Retinoic acid receptor RXR-gamma (Homo sapiens) (UniProt P48443); experiment: Agonist activity at Gal4-LBD fused RXRgamma (unknown origin) expressed in HEK293T cells assessed as fold activation at 5 uM after 14 to 16 hrs by dual-Glo luciferase assay relative to untreated control
T3 sequence (whole entry): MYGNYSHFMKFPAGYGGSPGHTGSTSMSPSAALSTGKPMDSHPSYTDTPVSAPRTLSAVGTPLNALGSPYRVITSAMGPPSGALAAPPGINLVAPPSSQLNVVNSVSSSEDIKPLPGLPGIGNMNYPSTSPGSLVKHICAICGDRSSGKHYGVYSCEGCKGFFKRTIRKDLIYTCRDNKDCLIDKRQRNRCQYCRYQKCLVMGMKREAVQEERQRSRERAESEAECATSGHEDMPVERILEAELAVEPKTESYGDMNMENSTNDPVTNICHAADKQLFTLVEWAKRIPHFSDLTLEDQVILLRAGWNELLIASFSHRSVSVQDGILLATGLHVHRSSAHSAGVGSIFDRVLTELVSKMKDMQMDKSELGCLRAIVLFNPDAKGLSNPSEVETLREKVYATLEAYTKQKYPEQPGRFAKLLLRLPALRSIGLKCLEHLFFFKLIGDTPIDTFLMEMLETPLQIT

[4] = biological target: T1, Retinoic acid receptor RXR-alpha (Homo sapiens); experiment: Agonist activity at Gal4-LBD fused RXRalpha (unknown origin) expressed in HEK293T cells assessed as fold activation at 1 uM after 14 to 16 hrs by dual-Glo luciferase assay relative to untreated control
[5] = biological target: T2, Retinoic acid receptor RXR-beta (Homo sapiens); experiment: Agonist activity at Gal4-LBD fused RXRbeta (unknown origin) expressed in HEK293T cells assessed as fold activation at 1 uM after 14 to 16 hrs by dual-Glo luciferase assay relative to untreated control
[6] = biological target: T3, Retinoic acid receptor RXR-gamma (Homo sapiens); experiment: Agonist activity at Gal4-LBD fused RXRgamma (unknown origin) expressed in HEK293T cells assessed as fold activation at 1 uM after 14 to 16 hrs by dual-Glo luciferase assay relative to untreated control

Compound: O=C(O)c1cccc(-c2cc(Cl)cc(Cl)c2)c1
Activity (Homo sapiens): 42%

fold change (FC) [1]: 39
fold change (FC) [2]: 94
fold change (FC) [3]: 17
Compound: CC(C)(C)c1cc(-c2ccc(CC(=O)O)cc2)cc(C(C)(C)C)c1

fold change (FC) [4]: 24
fold change (FC) [5]: 59
fold change (FC) [6]: 8
Compound: Cc1cc(-c2cc(C(F)(F)F)cc(C(F)(F)F)c2)ccc1CC(=O)O
